{"source": "patent US9650440B2", "about": "“Monoclonal antibodies that specifically block biological activity of a tumor antigen” (Morphotek, Inc., priority 2004, dated 2017)", "key": {"SKOV-3": {"test_system": "SKOV-3", "assay": "Alternative ADCC assay, ^51Cr release, SKOV-3 target cells", "assay_type": "cell-based, human", "conditions": "for SKOV-3 Percentage of ^51Cr release: 10 micrograms/milliliter, 18 hours; for SKOV-3 Percentage of specific ^51Cr release: release with antibody minus without antibody", "method": "(§1) In an alternative ADCC assay, the ability of antibody to produce ADCC was evaluated using SKOV-3, IGROV-1, and 1205 Lu (negative control) as target cells, and PBMCs from normal blood donors. Antibody was tested at a concentration of 10 micrograms/milliliter. Donor PBMCs used as effector cells were thawed and kept overnight in medium (IMDM supplemented with 10% FCS). The cells were resuspended in medium at a concentration of 10^7 cells/milliliter. The tumor cells used as target cells were detached from the culture flask and 10^6 cells in 100 microliters FCS were labeled with 100 uCi (3.7 MBq) ^51Cr (Amersham, Buckinghamshire, UK) for 2 hours at 37° C. Cells were washed thrice with 5 milliliters medium and resuspended in medium at a concentration of 10^5 cells/milliliter. Fifty microliters of the tumor cells were seeded in V bottom 96-well plates. Cells were then incubated with 50 microliters medium containing the test antibody or control antibody. After 30 minutes incubation at 37° C., 50 microliters of the PBMCs were seeded in V bottom 96 well plates at various target-effector cell ratios (1:0, 1:25, 1:50, and 1:100) and the plates were further incubated for 18hours at 37° C. The release of ^51Cr in the supernatant was determined in a LKB gamma-counter. Each measurement was carried out in triplicate. The percentage of release was defined as: % release=[(release−spontaneous release)/(maximal release−spontaneous release)]×100. The percentage of specific release was defined as: % specific ^51Cr release=% total ^51Cr release with antibody−% total ^51Cr release without antibody."}, "IGROV-1": {"test_system": "IGROV-1", "assay": "Alternative ADCC assay, ^51Cr release, IGROV-1 target cells", "assay_type": "cell-based, human", "conditions": "for IGROV-I Percentage of ^51Cr release: 10 micrograms/milliliter, 18 hours; for IGROV-I Percentage of specific ^51Cr release: release with antibody minus without antibody", "method": "as §1"}, "[1]": {"conditions": "Patient 1 PBMCs, T:E ratio 1:25"}, "[2]": {"conditions": "Patient 1 PBMCs, T:E ratio 1:50"}, "[3]": {"conditions": "Patient 1 PBMCs, T:E ratio 1:100"}, "[4]": {"conditions": "Patient 2 PBMCs, T:E ratio 1:25"}, "[5]": {"conditions": "Patient 2 PBMCs, T:E ratio 1:50"}, "[6]": {"conditions": "Patient 2 PBMCs, T:E ratio 1:100"}}, "data": [{"molecule": "anti-FR-α antibody: humanized anti-FR-α antibody, heavy chain SEQ ID NO:5 and light chain SEQ ID NO:2, expressed in CHO-K1 cells (antibody) heavy: EVQLVESGGGVVQPGRSLRLSCSASGFTFSGYGLSWVRQAPGKGLEWVAMISSGGSYTYYADSVKGRFAISRDNAKNTLFLQMDSLRPEDTGVYFCARHGDDPAWFAYWGQGTPVTVSSASTKGPSVFPLAPSSKSTSGGTAALGCLVKDYFPEPVTVSWNSGALTSGVHTFPAVLQSSGLYSLSSVVTVPSSSLGTQTYICNVNHKPSNTKVDKKV[human IgG1 Fc not written out] light: DIQLTQSPSSLSASVGDRVTITCSVSSSISSNNLHWYQQKPGKAPKPWIYGTSNLASGVPSRFSGSGSGTDYTFTISSLQPEDIATYYCQQWSSYPYMYTFGQGTKVEIKRTVAAPSVFIFPPSDEQLKSGTASVVCLLNNFYPREAKVQWKVDNALQSGNSQESVTEQDSKDSTYSLSSTLTLSKADYEKHKVYACEVTHQGLSSPVTKSFNRGEC", "values": [{"measurement": "ADCC killing of SKOV-3", "setting": "SKOV-3; PBMCs as effector cells, in words", "result": "mediated killing of tumor cell line SKOV-3"}, {"measurement": "SKOV-3 Percentage of ^51Cr release", "setting": "SKOV-3; Patient 1 PBMCs, T:E ratio 1:0", "result": "2.0 ± 0.0", "unit": "%"}, {"measurement": "SKOV-3 Percentage of specific ^51Cr release", "setting": "SKOV-3; Patient 1 PBMCs, T:E ratio 1:0", "result": "0.7 ± 0.0", "unit": "%"}, {"measurement": "SKOV-3 Percentage of ^51Cr release", "setting": "SKOV-3; [1]", "result": "36.1 ± 1.4", "unit": "%"}, {"measurement": "SKOV-3 Percentage of specific ^51Cr release", "setting": "SKOV-3; [1]", "result": "30.8 ± 1.7", "unit": "%"}, {"measurement": "SKOV-3 Percentage of ^51Cr release", "setting": "SKOV-3; [2]", "result": "46.2 ± 1.0", "unit": "%"}, {"measurement": "SKOV-3 Percentage of specific ^51Cr release", "setting": "SKOV-3; [2]", "result": "39.4 ± 1.1", "unit": "%"}, {"measurement": "SKOV-3 Percentage of ^51Cr release", "setting": "SKOV-3; [3]", "result": "61.7 ± 0.2", "unit": "%"}, {"measurement": "SKOV-3 Percentage of specific ^51Cr release", "setting": "SKOV-3; [3]", "result": "53.7 ± 0.3", "unit": "%"}, {"measurement": "SKOV-3 Percentage of ^51Cr release", "setting": "SKOV-3; Patient 2 PBMCs, T:E ratio 1:0", "result": "−0.6 ± 0.0", "unit": "%"}, {"measurement": "SKOV-3 Percentage of specific ^51Cr release", "setting": "SKOV-3; Patient 2 PBMCs, T:E ratio 1:0", "result": "0.8 ± 0.0", "unit": "%"}, {"measurement": "SKOV-3 Percentage of ^51Cr release", "setting": "SKOV-3; [4]", "result": "31.2 ± 1.0", "unit": "%"}, {"measurement": "SKOV-3 Percentage of specific ^51Cr release", "setting": "SKOV-3; [4]", "result": "28.6 ± 1.0", "unit": "%"}, {"measurement": "SKOV-3 Percentage of ^51Cr release", "setting": "SKOV-3; [5]", "result": "43.5 ± 1.3", "unit": "%"}, {"measurement": "SKOV-3 Percentage of specific ^51Cr release", "setting": "SKOV-3; [5]", "result": "39.0 ± 1.4", "unit": "%"}, {"measurement": "SKOV-3 Percentage of ^51Cr release", "setting": "SKOV-3; [6]", "result": "56.0 ± 1.0", "unit": "%"}, {"measurement": "SKOV-3 Percentage of specific ^51Cr release", "setting": "SKOV-3; [6]", "result": "48.4 ± 1.5", "unit": "%"}, {"measurement": "ADCC killing of IGROV-1", "setting": "IGROV-1; PBMCs as effector cells, cell line sensitive to killing by PBMCs alone, in words", "result": "mediated killing of IGROV-1"}, {"measurement": "IGROV-I Percentage of ^51Cr release", "setting": "IGROV-1; Patient 1 PBMCs, T:E ratio 1:0", "result": "−4.1 ± 0.1", "unit": "%"}, {"measurement": "IGROV-I Percentage of specific ^51Cr release", "setting": "IGROV-1; Patient 1 PBMCs, T:E ratio 1:0", "result": "−1.1 ± 0.2", "unit": "%"}, {"measurement": "IGROV-I Percentage of ^51Cr release", "setting": "IGROV-1; [1]", "result": "70.2 ± 1.3", "unit": "%"}, {"measurement": "IGROV-I Percentage of specific ^51Cr release", "setting": "IGROV-1; [1]", "result": "55.3 ± 4.4", "unit": "%"}, {"measurement": "IGROV-I Percentage of ^51Cr release", "setting": "IGROV-1; [2]", "result": "66.8 ± 7.1", "unit": "%"}, {"measurement": "IGROV-I Percentage of specific ^51Cr release", "setting": "IGROV-1; [2]", "result": "51.6 ± 9.3", "unit": "%"}, {"measurement": "IGROV-I Percentage of ^51Cr release", "setting": "IGROV-1; [3]", "result": "65.2 ± 1.2", "unit": "%"}, {"measurement": "IGROV-I Percentage of specific ^51Cr release", "setting": "IGROV-1; [3]", "result": "41.2 ± 5.3", "unit": "%"}, {"measurement": "IGROV-I Percentage of ^51Cr release", "setting": "IGROV-1; Patient 2 PBMCs, T:E ratio 1:0", "result": "−10.9 ± 0.2", "unit": "%"}, {"measurement": "IGROV-I Percentage of specific ^51Cr release", "setting": "IGROV-1; Patient 2 PBMCs, T:E ratio 1:0", "result": "2.4 ± 0.5", "unit": "%"}, {"measurement": "IGROV-I Percentage of ^51Cr release", "setting": "IGROV-1; [4]", "result": "46.0 ± 1.2", "unit": "%"}, {"measurement": "IGROV-I Percentage of specific ^51Cr release", "setting": "IGROV-1; [4]", "result": "30.4 ± 4.1", "unit": "%"}, {"measurement": "IGROV-I Percentage of ^51Cr release", "setting": "IGROV-1; [5]", "result": "64.7 ± 1.3", "unit": "%"}, {"measurement": "IGROV-I Percentage of specific ^51Cr release", "setting": "IGROV-1; [5]", "result": "41.7 ± 1.9", "unit": "%"}, {"measurement": "IGROV-I Percentage of ^51Cr release", "setting": "IGROV-1; [6]", "result": "67.8 ± 10.5", "unit": "%"}, {"measurement": "IGROV-I Percentage of specific ^51Cr release", "setting": "IGROV-1; [6]", "result": "31.0 ± 12.9", "unit": "%"}]}]}
